Test results as given in patent US7531545B2, “2-amino-3,4-dihydro-pyrido[3,4-d]pyrimidine derivatives useful as inhibitors of β-secretase (BACE)” (Janssen Pharmaceutica, N.V., priority 2005, dated 2009).

Amino acid sequences for entries named in this document (tags omitted). Residues count along the entry.
UniProt P56817, 46-501 limits assumed: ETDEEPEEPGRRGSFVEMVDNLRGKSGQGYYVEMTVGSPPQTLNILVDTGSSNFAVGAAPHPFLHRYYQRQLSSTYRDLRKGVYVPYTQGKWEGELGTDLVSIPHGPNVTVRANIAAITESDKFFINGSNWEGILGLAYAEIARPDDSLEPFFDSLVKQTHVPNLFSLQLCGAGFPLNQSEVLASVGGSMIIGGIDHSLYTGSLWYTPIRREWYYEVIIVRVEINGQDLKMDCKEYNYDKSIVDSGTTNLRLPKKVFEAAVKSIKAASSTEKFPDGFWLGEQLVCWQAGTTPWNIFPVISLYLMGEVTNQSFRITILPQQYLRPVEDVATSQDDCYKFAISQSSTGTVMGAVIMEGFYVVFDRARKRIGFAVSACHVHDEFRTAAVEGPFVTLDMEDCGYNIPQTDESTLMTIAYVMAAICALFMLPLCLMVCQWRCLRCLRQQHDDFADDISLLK

Target: human BACE-1 (Homo sapiens, UniProt P56817)
Test: CEREP BACE Inhibition Assay
Type: biochemical
Conditions: recombinant enzyme

% Inhibition @ 1.0 μM (1.0 μM, percent inhibition of the control activity): 82%
IC50: 220 nM
SMILES: NC1=Nc2cnc(Oc3ccccc3)cc2CN1[C@@H](CCC(=O)N1CCC(CCO)CC1)C1CCCCC1
